Laboratory results taken from PubChem BioAssay AID485364 (National Center for Advancing Translational Sciences (NCATS), 2010).
The entries are a selection whose mix differs from that of the whole data set. Active and inactive are the calls of the source. Calls follow the shape of the dose curve; as a rule, active = well fitted inhibition curve with a large enough effect; inconclusive = small, poorly fitted or top-dose-only effect; inactive = no such curve, though single readings can be large or run the other way.

Each molecule was assayed against Schistosoma mansoni thioredoxin glutathione reductase (TGR) (UniProt Q962Y6) (assay: qHTS Assay for the Inhibitors of Schistosoma Mansoni Peroxiredoxins). Conditions: purified TGR, DTNB reduction, TNB absorbance 405 nm.
Text: Schistosomiasis is a major neglected tropical disease that currently affects over 200 million. It is caused by different species of flatworms, such as Schistosoma mansoni. Over the last century, drugs to treat the disease have evolved from potassium antimonyl tartrate, artemisinin, oxamniquine, to praziquantel, with praziquantel remaining the universally-used single drug of choice over the past three decades. However, transmission rates have changed little with praziquantel, and there is evidence for the development of drug resistant parasites. Because there is currently no suitable alternative therapy available, there is an urgent need to identify new targets and drugs for schistosomiasis treatment. […] Recently, a quantitative high-throughput screen of the NIH Molecular Libraries Small Molecule Repository (MLSMR, ~71K at the time of the screen in 2007) was performed using an assay that targeted both TGR and peroxiredoxin2 (Prx2, an H2O2-reducing enzymatic component of the S. mansoni redox "firewall") by following the decrease of NADPH fluorescence. […] In addition, the fluorescence assay was also subject to fluorescence interference from compound library members. […] The assay followed the reduction of 5, 5'-dithiobis (2-nitrobenzoic acid) (DTNB) (Ellman's reagent) by NADPH and measured the increase in absorbance at 412 nm of the reaction product, TNB. […]
Also: nearly all actives have a fitted effect of over 60% in size.
Potency is read from the fitted curve at half-maximal effect.

Row | Compound | Potency
1 | CC[n+]1c(/C=C/N(C)c2ccccc2)oc2ccc(Cl)cc21 | active: 50.1 µM
2 | CC[n+]1c(/C=C/N(C)c2ccccc2)oc2ccc(F)cc21 | active: 50.1 µM
